Yeast UUG start-1 – modulators of start codon recognition fidelity in yeast; S. cerevisiae UUG-firefly luciferase reporter, luminescence/redox ratio; AID 602363; 350,000 tested, 0.13% active; activity score, % at 18.7 µM;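 active = replicate mean at a twofold rise or more, about +100% in these data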;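 also: firefly luciferase made from a UUG start codon reports start codon fidelity; reporter light over untreated wells divided by growth signal over untreated wells; some hits fall short of that in this replicate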
CAL PDZ FP-1 – blocks peptide binding to human CAL PDZ domain; 330,000 tested, 0.02% active; Q9HD26; purified CAL PDZ, TMR-peptide fluorescence polarization, 1 h; inhibition, % at 20 µM;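 active = highest replicate inhibition of at least 40%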;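 also: plate controls were DMSO neutral control wells for no effect and unlabeled competitor peptide control wells for full effect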
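material = purified tagged CAL PDZ domain construct (CerCALP) | buffer or medium = sodium phosphate/NaCl buffer pH 7.4 with TCEP, IgG, Thesit | reagent = TMR-labelled reporter peptide T*-PRC34 bound in PDZ groove | incubation = 1 h room-temperature incubation prior to read | measured by = fluorescence polarization (mP) | evaluation = percent inhibition from loss of millipolarization | control set = unlabelled peptide and DMSO controls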
dFosB act – mouse delta FosB homodimer activation; P13346; activation, % at 25 µM; 340,000 tested, 0.99% active; AID 493131; purified delta FosB, TAMRA-CDK5 oligo fluorescence polarization; percent of positive-control signal above neutral wells;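 active = mean activation above about 17%, with every replicate also reaching it, limit read from the data, passing the limit was not always enough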
CDK5 p35 inh – inhibitors of human CDK5/p35 kinase; 330,000 tested, 0.01% active; inhibition, % at 10 µM; Q00535+Q15078; Recombinant CDK5/p35, ADP-Glo luminescence, 60 min;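 active = highest replicate inhibition of at least 50% and at least 75% of replicates reaching 50%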;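 also: plate controls were DMSO neutral control for no effect and GW8510 at 10 µM for full effect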
CAL PDZ FP-2 – inhibitors of human CAL PDZ peptide binding | purified CAL PDZ, TMR-peptide fluorescence polarization, 1 h | inhibition, % at 24.9 µM | 300,000 tested, 0.92% active | AID 602252;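 active = mean inhibition of at least 30% with at least half of replicates also reaching 30%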;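 also: 0% = DMSO neutral control and 100% = excess unlabeled competitor peptide PRC23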
Dyrk1A ADPGlo – inhibitors of rat Dyrk1A kinase; Q63470; ADP-Glo luminescence, NFATc1 peptide; inhibition, % at 12.5 µM; 310,000 tested, 0.43% active; AID 504441; in the data active = inhibition above about 50%;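 also: plate controls were vehicle with enzyme for no effect and no enzyme for full effect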
Yeast UUG start-2 – yeast start codon fidelity modulation; shares compounds with Yeast UUG start-1; S. cerevisiae UUG-start firefly luciferase, luminescence, 4 h; 100% means double the DMSO signal; activation, % at 38 µM; 540 tested, under 10 active; AID 652061;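 active = signal increase whose fitted curve reaches an absolute level of 40 at a concentration under 10 µM; inactive = activity opposite to the expected increase, or the rest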
An asterisk follows results filed as active; i = inactive; . = not tested or not shown. Hits are enriched below; roughly 1.7% of the tested compounds scored in any of these assays.

CAL PDZ FP-1 | CAL PDZ FP-2 | dFosB act | Yeast UUG start-1 | Yeast UUG start-2 | CDK5 p35 inh | Dyrk1A ADPGlo | canonical_smiles
. | . | . | 22 | . | . | . | C[C@H]1CN([C@@H](C)CO)S(=O)(=O)c2ccc(C3=CCCC3)cc2O[C@@H]1CN(C)Cc1ccccc1F
. | . | . | -8 | . | . | . | C[C@H]1CN([C@@H](C)CO)S(=O)(=O)c2ccc(C#CC3CC3)cc2O[C@@H]1CN(C)Cc1cccc(F)c1
. | . | . | 107* | i | . | . | C[C@H]1CN([C@@H](C)CO)S(=O)(=O)c2ccc(C#Cc3cccc(F)c3)cc2O[C@@H]1CN(C)C
. | . | . | 130* | i | . | . | C[C@@H]1CN([C@@H](C)CO)S(=O)(=O)c2ccc(C#CC3CC3)cc2O[C@@H]1CN(C)Cc1cccc(F)c1
. | . | . | 9 | . | . | . | COc1ccccc1S(=O)(=O)N[C@@H]1CC[C@@H](CCNC(=O)C2CCCCC2)O[C@H]1CO
. | . | . | -11 | . | . | . | Cc1ccc(S(=O)(=O)N[C@@H]2CC[C@H](CC(=O)NCc3ccccc3F)O[C@H]2CO)cc1
. | . | . | 171* | i | . | . | C[C@@H](NC(=O)C[C@@H]1CC[C@H](NC(=O)C2CCOCC2)[C@H](CO)O1)c1ccccc1
. | . | . | 127* | i | . | . | C[C@@H](NC(=O)C[C@@H]1CC[C@H](NC(=O)Nc2ccc3c(c2)OCO3)[C@@H](CO)O1)c1ccccc1
0 | -2 | -1 | 307* | -4 | 0 | 0 | CCc1ccc(/C=N/NC(=O)c2cc(C3CC3)nc3ccccc23)s1
. | . | . | 1 | . | . | . | C[C@@H]1CCCCO[C@H](CN(C)Cc2ccccc2)[C@@H](C)CN([C@@H](C)CO)C(=O)c2cc(NC(=O)C3CCCCC3)ccc2O1
1 | . | -1 | 321* | -32 | 0 | -11 | Cc1ccc(C(=O)NCCSC(C)(C)C)cc1
0 | -6 | -3 | -4 | 4 | 1 | -5 | CCOc1ccccc1Nc1nc2ccccc2n1C(C)C
. | . | . | -2 | . | . | . | COc1ccc(S(=O)(=O)N(C)C[C@@H]2Oc3ccc(NS(=O)(=O)c4ccc(F)cc4)cc3C(=O)N([C@H](C)CO)C[C@@H]2C)cc1
. | . | . | 151* | i | . | . | COc1ccc([C@@H](OC(=O)Nc2ccc(SC)cc2)[C@@H](CCO)OC)cc1O
. | . | . | -10 | . | . | . | Cc1noc(C)c1S(=O)(=O)N(C)C[C@@H]1OCCCC[C@@H](C)Oc2ccc(NC(=O)Nc3ccc4c(c3)OCO4)cc2C(=O)N([C@H](C)CO)C[C@@H]1C
. | . | . | 2 | . | . | . | C[C@H]1CN([C@@H](C)CO)C(=O)c2cc(NC(=O)Nc3ccccc3)ccc2O[C@@H]1CN(C)S(=O)(=O)c1ccc(F)cc1
0 | -1 | 2 | . | . | 0 | . | O=C(Cc1ccccc1F)Nc1ccccc1-c1ccccc1
-3 | 10 | -2 | 540* | -7 | -1 | -3 | O=C(Cc1c(F)cccc1Cl)Nc1ccccc1-c1ccccc1
. | . | . | -7 | . | . | . | C[C@H](CO)N1C[C@H](C)[C@H](CN(C)C(=O)Nc2ccccc2)Oc2c(NS(C)(=O)=O)cccc2C1=O
0 | 2 | -1 | 523* | 2 | 1 | 19 | O=C(CNC(=S)NC(=O)C1CCCCC1)c1ccccc1
. | . | . | 8 | . | . | . | Cc1ccccc1-c1cnc2c(c1)C(=O)N([C@@H](C)CO)C[C@H](C)[C@@H](CN(C)C(=O)CN(C)C)O2
1 | . | -7 | -14 | . | 0 | 7 | COCCn1c(SCC(=O)NC(=O)Cc2ccccc2)nc2ccccc2c1=O
-1 | -3 | 5 | . | -2 | 1 | . | COCCn1c(SCC(=O)c2cc(C)n(C)c2C)nc2ccccc2c1=O
-3 | -2 | -9 | 4 | . | -1 | -6 | CCOC(=O)CSc1nc2ccccc2c(=O)n1Cc1ccco1
-2 | -3 | -6 | -32 | . | 1 | 1 | Cc1cc(-n2c(C)cc(C(=O)CSc3nnnn3-c3ccccc3)c2C)no1
-3 | -4 | -14 | -17 | 2 | 0 | -3 | O=C(CSc1nc2ccccc2c(=O)n1Cc1ccco1)c1ccccc1
-1 | -7 | -7 | 685* | 1 | -1 | -3 | Cc1cc(-n2c(C)cc(C(=O)CSc3nc4ccccc4c(=O)n3Cc3ccco3)c2C)no1
. | . | . | -6 | . | . | . | CN1C(=O)c2cc(NC(=O)c3cc(F)cc(F)c3)ccc2OC[C@@H]2O[C@@H](CC(=O)O)CC[C@@H]21
. | . | . | 4 | . | . | . | O=C(NC1CCCC1)[C@H]1[C@H](CO)[C@H]2Cn3c(cccc3=O)[C@@H]1N2CC1CCCC1
-2 | 2 | -7 | . | -4 | -1 | 4 | NC(=O)C[N+]1(CC#CC(O)(c2ccccc2)c2ccccc2)CCCC1
0 | 4 | 0 | . | . | 0 | 9 | CCC[N+]1(CC#CC(O)(c2ccccc2)C2CCCCC2)CCCCC1 (configuration not stated)
-1 | -1 | -3 | 501* | 10 | -1 | 1 | CCCc1[nH]nc2c1C(Cc1ccccc1)C(C#N)=C(N)O2 (configuration not stated)
. | . | . | -5 | . | . | . | C[C@@H]1CN([C@@H](C)CO)C(=O)Cc2cc(NS(=O)(=O)c3cccs3)ccc2O[C@@H]1CN(C)C(=O)Nc1ccccc1
0 | 9 | 5 | 446* | -2 | 0 | 6 | O=S(=O)(NC1=NCCCCC1)c1ccccc1Cl
0 | -2 | -4 | . | . | -1 | -9 | Cc1ccccc1S(=O)(=O)NC1=NCCCCC1
1 | -2 | -1 | -35 | 11 | -1 | 4 | Cn1nc(CC(=O)NC2CCCCCC2)c2ccccc2c1=O
-1 | -21 | 2 | . | -4 | 0 | 8 | Cn1nc(CC(=O)NC2CCCCC2)c2ccccc2c1=O
. | . | . | 2 | . | . | . | COc1ccc(CN(C)C[C@H]2Oc3c(NS(=O)(=O)c4cn(C)cn4)cccc3C(=O)N([C@H](C)CO)C[C@H]2C)cc1
. | . | . | -7 | . | . | . | C[C@H](CO)N1C[C@H](C)[C@@H](CN(C)C(=O)c2ccc(F)cc2)Oc2ncc(C#CCN(C)C)cc2C1=O
1 | 1 | -5 | 5 | . | 0 | -7 | O=C(Nc1ccccc1C(F)(F)F)c1ccsc1
-1 | -6 | -4 | active | -4 | 0 | . | O=C(NNc1ccccc1C(F)(F)F)c1sccc1Br
0 | 4 | 3 | 0 | -13 | 2 | 5 | COc1ccc(Nc2nc3ccccc3n2C)cc1
. | . | . | 4 | . | . | . | Cc1noc(C)c1NC(=O)N(C)C[C@H]1Oc2ccc(NS(C)(=O)=O)cc2CC(=O)N([C@@H](C)CO)C[C@@H]1C
1 | 0 | 5 | -8 | . | 1 | 0 | CC1CCN(C(=O)Cn2cc(C#N)c3ccccc32)CC1
0 | -6 | -1 | -7 | . | 0 | 10 | O=Cc1cn(CC(=O)NCC2CCCO2)c2ccccc12 (configuration not stated)
-1 | . | 1 | 146* | -7 | 0 | 7 | Cc1cc(SCC(=O)NCC2CCCO2)nc2ccccc12 (configuration not stated)

Rewritten with values under each structure: six of the compounds above.
Values run as follows: CAL PDZ FP-1 | CAL PDZ FP-2 | dFosB act | Yeast UUG start-1 | Yeast UUG start-2 | CDK5 p35 inh | Dyrk1A ADPGlo
> Cc1noc(C)c1NC(=O)N(C)C[C@H]1Oc2ccc(NS(C)(=O)=O)cc2CC(=O)N([C@@H](C)CO)C[C@@H]1C
  . | . | . | 4 | . | . | .
> CC1CCN(C(=O)Cn2cc(C#N)c3ccccc32)CC1
  1 | 0 | 5 | -8 | . | 1 | 0
> O=C(NNc1ccccc1C(F)(F)F)c1sccc1Br
  -1 | -6 | -4 | active | -4 | 0 | .
> Cn1nc(CC(=O)NC2CCCCC2)c2ccccc2c1=O
  -1 | -21 | 2 | . | -4 | 0 | 8
> COc1ccc(Nc2nc3ccccc3n2C)cc1
  0 | 4 | 3 | 0 | -13 | 2 | 5
> O=Cc1cn(CC(=O)NCC2CCCO2)c2ccccc12 (configuration not stated)
  0 | -6 | -1 | -7 | . | 0 | 10

Compound activity from PubChem.
